Here are results for five compounds from US10682371B2, “Small molecule conjugates specifically activated in tumor microenvironment for targeting and use thereof” (priority 2014, dated 2020).

The subject of data set [1] is Human fibrosarcoma HT-1080 tumor tissue homogenate. The data set is classed as biochemical. The following applies: Human fibrosarcoma HT-1080. As to the method: (§1) At 37 °C, sample compounds were added into 100 μg acidized tumor tissue homogenates (pH6.0) in a concentration of 1 mg/ml.
(§2) […], sample compounds were added into 100 μg acidized tumor tissue homogenates (pH6.0) in a concentration of 1 mg/ml.
(§3) At 37 °C, sample compounds were added into 100 μg acidized tumor tissue homogenates in a concentration of 1 mg/ml.
(§4) In the experiments, at 37 °C, compounds were added into proteases in 100 μg acidized tumor tissue homogenates in a concentration of 1 mg/ml. […] Meanwhile certain compounds produced in the screening were compared and their activation efficiency in same tissue was analyzed.
(§5) At 37° C., compounds were added into proteases in 100 μg acidized tumor tissue homogenates in a concentration of 1 mg/ml.

Data set [2] in a line: Solubility / formulation test in solvent 1 and solvent 2. The data set is classed as physicochemical. As to the method:
In Table 11, AAN, AANL and AANK indicate the linkage formed by small peptides in the compounds, A is Ala, N is Asn, L is Leu and K is Lys. […] The dissolution concentration is 10 mg/ml.
B1, B2, B3 and B4 and various control compounds were dried under vacuum, sterilized via gas sterilization, and separately packing in a sterile room. Before animal test, B1, B2, B3 and B4 were dissolved by solvent 1 (injectable water) or solvent 2 (30% alcohol, 70% injectable water) and diluted by injectable water to the desired concentration in sterile room. […] Change in solubility may greatly affect the formulation scheme of a drug.
D1, D2, D3, D4 and various control compounds were dried under vacuum, sterilized via gas sterilization, and separately packing in a sterile room. […] Change in solubility may greatly affect the formulation scheme of a drug.

The subject of data set [3] is BALB/C mice. The data set can be described thus: Maximum tolerated dose (MTD) / acute toxicity by single intravenous injection. Conditions: for MTD (maximum tolerated dose): intravenous injection, one time.
The test system of data set [4] is HT1080 model. The data set can be described thus: Comparative experiments of Legutaxel, Abraxane and Paclitaxel in HT1080 model. Format: in vivo. Conditions: high dose comparison. As to the method: FIGS. 1A and 1B show comparative experiments performed in HT1080 model by using a high dose of Legutaxel, Capxol and Paclitaxel injections, which were used at an equal molar dose and at an equal toxic dose.
Comparative experiments for a high dose of Legutaxel, Abraxane and Paclitaxel were performed in HT1080 model, which were used at an equal molar dose and at an equal toxic dose.

The test system of data set [5] is Human chronic leukemia K562 tumor tissue homogenate. Format: biochemical. The following applies: Human chronic leukemia K562; 37° C., 1 mg/ml. Here is the method: as §1, §2, §3, §4, §5
[6] abbreviates: single intravenous injection, 25 mg/kg, 10 BALB/C mice per group.
Where [7] appears, read: single intravenous injection, 30 mg/kg, 10 BALB/C mice per group.
The mark [8] stands for this setting: single intravenous injection, 35 mg/kg, 10 BALB/C mice per group.
Where [9] appears, read: single intravenous injection, 40 mg/kg, 10 BALB/C mice per group.
Setting [10] is: single intravenous injection, 30 mg/kg, 10 BALB/C mice per group, 30 mg/kg.
The mark [11] stands for this setting: single intravenous injection, 35 mg/kg, 10 BALB/C mice per group, 35 mg/kg.

“And” between values parts separate entries of the source, which are not always exact repeats. Equal entries are not always repeated. Where two headings read alike, the source gives them in different places.

For `COCCOCCOCCOCCOCCOCC(=O)N[C@H](C)C(=O)N[C@H](C)C(=O)N[C@H](CC(N)=O)C(=O)Nc1ccc(COC(=O)OC(C(=O)OC2C[C@@]3(O)[C@@H](OC(=O)c4ccccc4)[C@H]4[C@](C)(C(=O)[C@H](OC(C)=O)C(=C2C)C3(C)C)[C@@H](O)CC2OC[C@]24OC(C)=O)[C@@H](NC(=O)c2ccccc2)c2ccccc2)cc1` (some centres unmarked) [S2′], the “Activation ratio (%) in homogenates from different tumor tissues” value in data set [1] (100 μg acidized homogenate pH6.0, 1 mg/ml, 37°) was found to be 75.4%.

For the compound Paclitaxel [reference compound], the “Solubility in water, in words” value in data set [2] is “insoluble in water”. Besides, in data set [3] (BALB/C mice), the “MTD (maximum tolerated dose)” value stood at 6 mg/kg. The “Mortality rate (%)” value in data set [3] (BALB/C mice, single iv, 25 mg/kg) was found to be 0%; in data set [3] (BALB/C mice, single iv, 30 mg/kg), 10%; in data set [3] (BALB/C mice, single iv, 35 mg/kg) it was 40%; in data set [3] (BALB/C mice, single iv, 40 mg/kg), 90%; in data set [3] (setting [6]), 10%; in data set [3] (setting [7]), 0%. In addition, the “Mortality rate (%)” value amounted to 10% in data set [3] (setting [8]) and 40% in data set [3] (setting [9]). Moreover, the “Number of dead animal” value came to 0 in data set [3] (BALB/C mice, single iv, 25 mg/kg, 10 animals); 1 in data set [3] (BALB/C mice, single iv, 30 mg/kg, 10 animals); 4 in data set [3] (BALB/C mice, single iv, 35 mg/kg, 10 animals); 8 in data set [3] (BALB/C mice, single iv, 40 mg/kg, 10 animals); 0 in data set [3] (setting [6]); 0 in data set [3] (setting [7]). Besides, the “Number of dead animal” value in data set [3] (setting [8]) came out at 1; in data set [3] (setting [9]), 4. The Death during treatment result in data set [4] is recorded as “Death occurred after the third treatment”.

Take `COCCOCCOCCOCCOCCOCC(=O)NCCCC[C@H](NC(=O)COCCOCCOCCOCCOCCOC)C(=O)N[C@H](C)C(=O)N[C@H](C)C(=O)N[C@H](CC(N)=O)C(=O)Nc1ccc(COC(=O)OC(C(=O)OC2C[C@@]3(O)[C@@H](OC(=O)c4ccccc4)[C@H]4[C@](C)(C(=O)[C@H](OC(C)=O)C(=C2C)C3(C)C)[C@@H](O)CC2OC[C@]24OC(C)=O)[C@@H](NC(=O)c2ccccc2)c2ccccc2)cc1` (some centres unmarked) [Compound A2]: the “Activation ratio (%) in homogenates from different tumor tissues” value in data set [1] (1 mg/ml, 100 μg acidized homogenate pH6.0, Paclitaxel release by HPLC) came to 78.4%.

`COCCOCCOCCOCCOCCOCC(=O)N[C@H](C)C(=O)N[C@H](C)C(=O)N[C@H](CC(N)=O)C(=O)Nc1ccc(COC(=O)N2[C@H]3[C@@H]2CN2C4=C(C(=O)C(N)=C(C)C4=O)[C@H](COC(N)=O)[C@]32OC)cc1` [Compound E2]: the “Activation ratio (%) in homogenates from different tumor tissues” value in data set [5] came out at 68.4%.

On to Docetaxel [reference compound], for which the “Solubility in water, in words” value in data set [2] is on record as “insoluble in water”. Also, the “MTD (maximum tolerated dose)” value in data set [3] (BALB/C mice) came to 25 mg/kg. Besides, the “Mortality rate (%)” value in data set [3] (setting [6]) was 0%; in data set [3] (setting [10]), 30% and 20%; in data set [3] (setting [11]), 60% and 50%; in data set [3] (setting [9]) it was 100%. For the same compound, the “Number of dead animal” value in data set [3] (setting [6]) was 0; in data set [3] (setting [10]) it was 3 and 2; in data set [3] (setting [11]), 6 and 5; in data set [3] (setting [9]) it was 10.
